Results from patent US6638952B1, “Aromatic sulfonyl alpha-cycloamino hydroxamic acid compounds” (Pharmacia Corporation, priority 1997, dated 2003).

Target: T1, recombinant human MMP-1 (Homo sapiens, UniProt P03956)
T1 construct: made in house; host or cells: transfected HT-1080 cells (provided by Dr. Howard Welgus, Washington University)
T1 sequence (P03956 100-469): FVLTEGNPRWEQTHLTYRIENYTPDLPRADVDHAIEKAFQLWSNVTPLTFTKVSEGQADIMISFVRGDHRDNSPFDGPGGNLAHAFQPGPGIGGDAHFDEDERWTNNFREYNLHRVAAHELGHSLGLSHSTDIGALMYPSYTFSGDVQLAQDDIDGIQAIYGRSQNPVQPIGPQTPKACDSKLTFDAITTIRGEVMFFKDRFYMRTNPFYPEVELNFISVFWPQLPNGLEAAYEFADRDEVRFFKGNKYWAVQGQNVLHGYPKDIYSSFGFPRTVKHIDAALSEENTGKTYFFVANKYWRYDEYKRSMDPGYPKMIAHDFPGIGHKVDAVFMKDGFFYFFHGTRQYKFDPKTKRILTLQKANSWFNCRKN
Experiment: In vitro metalloprotease inhibition, fluorogenic peptide substrate
Format: biochemical
Details: APMA-activated enzyme, room temperature, pH 7.5, substrate 4 μM

Row | SMILES | IC50
1 | C#CCN1CCC(CS(=O)(=O)c2ccc(Oc3ccc(C)c(C)c3)cc2)(C(=O)NO)CC1 [Example 7, N-Hydroxy-4-[[[4-(3,4-dimethylphenoxy)phenyl]sulfonyl]-methyl]-1-(2-propynyl)-4-piperidinecarboxamide, Monohydrochloride] | 7.7 µM
2 | C#CCN1CCCC1(CS(=O)(=O)c1ccc(Oc2ccccc2)cc1)C(=O)NO (centres unmarked) [Example 8, N-Hydroxy-2-[[(4-phenoxyphenyl)sulfonyl]-methyl]-1-(2-propynyl)-2-pyrrolidine Carboxamide, Monohydrochloride] | 0.4 µM

Where a name gives a salt, the structure may show the parent alone.
